Earlier results in publication PMC11604869, “Stereoselective block of the hERG potassium channel by the Class Ia antiarrhythmic drug disopyramide” (Cellular and Molecular Life Sciences: CMLS, 2024).

Biological target: ITO
Design: method as in PMID 10411557
Settings: read-out: KD for ITO inhibition

- Kd: 259 µM
Structure (SMILES): CC(C)N(CCC(C(N)=O)(c1ccccc1)c1ccccn1)C(C)C (racemic) [racemic disopyramide, 4-(diisopropylamino)−2-phenyl-2-(pyridin-2-yl) butanamide]
